Molecular target: Flt-3 (Homo sapiens, UniProt P36888)
Assay: Flt-3 kinase inhibition (GST-Flt-3, 33P incorporation into poly(Glu,Tyr))
Conditions: read-out: IC50 Flt-3

Chains of the proteins cited; added tags and fusions are not shown. Residues count along the entry.
UniProt P36888, 563-993 limits assumed: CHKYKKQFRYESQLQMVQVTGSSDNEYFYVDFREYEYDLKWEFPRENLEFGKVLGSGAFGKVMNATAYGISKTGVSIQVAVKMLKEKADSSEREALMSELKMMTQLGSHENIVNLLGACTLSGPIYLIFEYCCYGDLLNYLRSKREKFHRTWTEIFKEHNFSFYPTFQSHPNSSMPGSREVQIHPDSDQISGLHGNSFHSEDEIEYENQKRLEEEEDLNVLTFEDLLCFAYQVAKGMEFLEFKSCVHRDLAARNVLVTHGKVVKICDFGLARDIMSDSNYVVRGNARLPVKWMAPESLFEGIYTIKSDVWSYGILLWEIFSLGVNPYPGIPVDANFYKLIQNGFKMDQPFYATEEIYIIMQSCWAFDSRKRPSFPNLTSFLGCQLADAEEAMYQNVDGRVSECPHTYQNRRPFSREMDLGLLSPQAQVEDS

Structure (SMILES) | IC50
CN1CCC(Oc2ccc(NC(=O)Nc3ccc(Oc4cc(N)ncn4)cc3)cc2C(F)(F)F)CC1 | 140 nM
CNc1nccc(Oc2ccc(NC(=O)Nc3ccc(Cn4cnc(C)c4C)c(C(F)(F)F)c3)cc2)n1 | 120 nM

Source: patent US20080312192A1, “Diaryl Urea Derivatives in the Treatment of Protein Kinase Dependent Diseases” (priority 2003, published 2008)
